# Measured values published in article PMC10009755, “Discovery and Characterization of BAY-805, a Potent and Selective Inhibitor of Ubiquitin-Specific Protease USP21” (Journal of Medicinal Chemistry, 2023).
# Protein sequences, listed by entry. Tags and fused reporters are not part of them. Lines headed by an entry give the natural chain unless they say otherwise; changes in a name come on top. Residues count along the entry.
# UniProt P23975, whole entry: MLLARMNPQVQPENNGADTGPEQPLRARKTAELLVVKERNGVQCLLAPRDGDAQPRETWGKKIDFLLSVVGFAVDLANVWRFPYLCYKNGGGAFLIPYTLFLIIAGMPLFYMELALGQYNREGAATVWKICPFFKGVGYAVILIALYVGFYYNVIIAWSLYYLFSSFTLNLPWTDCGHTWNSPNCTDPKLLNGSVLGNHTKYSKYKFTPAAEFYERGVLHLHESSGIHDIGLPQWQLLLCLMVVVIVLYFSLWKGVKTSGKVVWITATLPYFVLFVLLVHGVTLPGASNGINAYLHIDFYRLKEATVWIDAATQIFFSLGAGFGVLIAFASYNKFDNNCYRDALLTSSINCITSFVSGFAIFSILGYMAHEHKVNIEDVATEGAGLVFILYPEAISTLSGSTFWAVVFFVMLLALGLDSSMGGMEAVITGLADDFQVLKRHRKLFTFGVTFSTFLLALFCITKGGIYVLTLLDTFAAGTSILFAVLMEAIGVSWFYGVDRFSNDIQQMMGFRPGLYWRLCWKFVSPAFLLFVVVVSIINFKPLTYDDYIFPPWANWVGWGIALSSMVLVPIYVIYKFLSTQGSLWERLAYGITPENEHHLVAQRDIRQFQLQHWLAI
# UniProt P42684, whole entry: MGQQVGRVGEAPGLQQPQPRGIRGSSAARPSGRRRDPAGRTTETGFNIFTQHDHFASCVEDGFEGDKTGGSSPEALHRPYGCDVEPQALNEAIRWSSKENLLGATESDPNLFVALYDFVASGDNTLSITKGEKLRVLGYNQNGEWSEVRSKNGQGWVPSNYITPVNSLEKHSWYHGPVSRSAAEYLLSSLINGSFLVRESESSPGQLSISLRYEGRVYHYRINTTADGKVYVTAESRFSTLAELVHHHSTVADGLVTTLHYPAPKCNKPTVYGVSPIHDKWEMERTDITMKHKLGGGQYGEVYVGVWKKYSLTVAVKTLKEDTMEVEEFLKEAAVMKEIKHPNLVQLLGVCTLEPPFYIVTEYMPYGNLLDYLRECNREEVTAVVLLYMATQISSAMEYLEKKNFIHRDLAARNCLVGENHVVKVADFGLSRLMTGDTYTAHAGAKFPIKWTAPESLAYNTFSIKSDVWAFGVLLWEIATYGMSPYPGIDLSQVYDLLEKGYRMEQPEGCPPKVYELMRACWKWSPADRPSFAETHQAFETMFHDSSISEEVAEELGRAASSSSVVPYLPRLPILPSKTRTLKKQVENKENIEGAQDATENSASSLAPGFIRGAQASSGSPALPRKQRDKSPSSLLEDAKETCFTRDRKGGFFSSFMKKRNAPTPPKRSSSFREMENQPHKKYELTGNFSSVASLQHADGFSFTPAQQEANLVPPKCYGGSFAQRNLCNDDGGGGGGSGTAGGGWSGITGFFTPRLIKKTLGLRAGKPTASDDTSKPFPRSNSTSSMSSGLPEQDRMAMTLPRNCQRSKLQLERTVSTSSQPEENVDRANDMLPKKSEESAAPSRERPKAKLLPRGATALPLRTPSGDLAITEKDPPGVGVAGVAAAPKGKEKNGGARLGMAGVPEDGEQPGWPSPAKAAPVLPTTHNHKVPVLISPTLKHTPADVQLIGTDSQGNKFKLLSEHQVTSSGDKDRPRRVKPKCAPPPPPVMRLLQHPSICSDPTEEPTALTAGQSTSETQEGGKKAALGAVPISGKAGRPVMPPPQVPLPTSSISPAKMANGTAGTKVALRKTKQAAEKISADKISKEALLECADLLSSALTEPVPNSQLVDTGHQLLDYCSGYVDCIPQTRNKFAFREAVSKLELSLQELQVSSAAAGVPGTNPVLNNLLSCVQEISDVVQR
# UniProt P21802, 22-821: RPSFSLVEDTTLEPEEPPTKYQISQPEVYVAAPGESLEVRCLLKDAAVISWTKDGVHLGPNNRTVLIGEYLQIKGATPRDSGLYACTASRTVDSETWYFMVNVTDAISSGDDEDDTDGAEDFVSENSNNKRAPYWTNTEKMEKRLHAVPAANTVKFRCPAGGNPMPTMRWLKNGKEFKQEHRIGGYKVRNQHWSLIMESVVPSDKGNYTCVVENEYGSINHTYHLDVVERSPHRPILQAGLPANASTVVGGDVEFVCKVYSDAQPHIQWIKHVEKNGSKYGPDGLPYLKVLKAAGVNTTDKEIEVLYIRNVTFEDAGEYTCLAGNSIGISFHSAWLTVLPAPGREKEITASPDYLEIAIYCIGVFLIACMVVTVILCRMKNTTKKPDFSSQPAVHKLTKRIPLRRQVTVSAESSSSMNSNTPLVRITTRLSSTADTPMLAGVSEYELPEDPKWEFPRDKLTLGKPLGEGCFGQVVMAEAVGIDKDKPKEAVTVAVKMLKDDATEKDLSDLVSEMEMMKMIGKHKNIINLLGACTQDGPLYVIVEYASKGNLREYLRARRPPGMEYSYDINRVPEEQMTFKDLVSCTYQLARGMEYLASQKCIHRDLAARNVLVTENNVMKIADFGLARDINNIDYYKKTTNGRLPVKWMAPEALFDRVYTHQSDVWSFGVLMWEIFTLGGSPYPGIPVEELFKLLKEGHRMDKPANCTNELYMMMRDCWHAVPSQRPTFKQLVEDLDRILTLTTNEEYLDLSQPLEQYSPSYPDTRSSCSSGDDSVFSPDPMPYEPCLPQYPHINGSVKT
# UniProt P49841: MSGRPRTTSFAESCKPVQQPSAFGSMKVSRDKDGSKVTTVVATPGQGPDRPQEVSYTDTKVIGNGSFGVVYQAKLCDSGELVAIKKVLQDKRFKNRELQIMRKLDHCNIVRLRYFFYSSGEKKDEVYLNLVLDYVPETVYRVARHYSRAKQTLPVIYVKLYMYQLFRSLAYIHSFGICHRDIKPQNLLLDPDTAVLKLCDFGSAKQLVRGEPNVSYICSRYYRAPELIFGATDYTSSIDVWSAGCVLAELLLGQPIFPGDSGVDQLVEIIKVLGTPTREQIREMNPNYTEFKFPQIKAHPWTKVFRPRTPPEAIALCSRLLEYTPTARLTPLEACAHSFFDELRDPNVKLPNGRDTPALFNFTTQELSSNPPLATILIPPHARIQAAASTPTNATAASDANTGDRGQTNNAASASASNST
# UniProt Q9Y4K4: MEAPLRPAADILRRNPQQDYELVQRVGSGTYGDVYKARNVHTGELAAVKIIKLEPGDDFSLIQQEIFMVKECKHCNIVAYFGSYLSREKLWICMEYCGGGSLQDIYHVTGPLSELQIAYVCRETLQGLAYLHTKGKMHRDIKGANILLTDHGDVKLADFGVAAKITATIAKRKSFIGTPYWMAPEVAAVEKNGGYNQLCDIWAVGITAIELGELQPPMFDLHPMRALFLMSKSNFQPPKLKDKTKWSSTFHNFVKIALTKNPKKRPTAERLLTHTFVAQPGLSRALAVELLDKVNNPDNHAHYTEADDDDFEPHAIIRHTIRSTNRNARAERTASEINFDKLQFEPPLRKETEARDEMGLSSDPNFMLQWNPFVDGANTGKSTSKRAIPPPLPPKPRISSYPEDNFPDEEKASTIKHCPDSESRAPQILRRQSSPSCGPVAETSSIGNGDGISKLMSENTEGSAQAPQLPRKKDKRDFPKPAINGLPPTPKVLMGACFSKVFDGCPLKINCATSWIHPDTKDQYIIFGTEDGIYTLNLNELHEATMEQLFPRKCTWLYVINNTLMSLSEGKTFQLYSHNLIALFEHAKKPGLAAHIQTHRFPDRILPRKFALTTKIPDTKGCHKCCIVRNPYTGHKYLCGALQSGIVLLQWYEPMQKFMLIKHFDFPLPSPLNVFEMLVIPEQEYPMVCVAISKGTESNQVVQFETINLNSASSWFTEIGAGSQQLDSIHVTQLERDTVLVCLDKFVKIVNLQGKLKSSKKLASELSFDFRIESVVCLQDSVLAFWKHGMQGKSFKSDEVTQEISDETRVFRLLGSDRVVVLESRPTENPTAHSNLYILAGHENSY
# UniProt Q8TD19: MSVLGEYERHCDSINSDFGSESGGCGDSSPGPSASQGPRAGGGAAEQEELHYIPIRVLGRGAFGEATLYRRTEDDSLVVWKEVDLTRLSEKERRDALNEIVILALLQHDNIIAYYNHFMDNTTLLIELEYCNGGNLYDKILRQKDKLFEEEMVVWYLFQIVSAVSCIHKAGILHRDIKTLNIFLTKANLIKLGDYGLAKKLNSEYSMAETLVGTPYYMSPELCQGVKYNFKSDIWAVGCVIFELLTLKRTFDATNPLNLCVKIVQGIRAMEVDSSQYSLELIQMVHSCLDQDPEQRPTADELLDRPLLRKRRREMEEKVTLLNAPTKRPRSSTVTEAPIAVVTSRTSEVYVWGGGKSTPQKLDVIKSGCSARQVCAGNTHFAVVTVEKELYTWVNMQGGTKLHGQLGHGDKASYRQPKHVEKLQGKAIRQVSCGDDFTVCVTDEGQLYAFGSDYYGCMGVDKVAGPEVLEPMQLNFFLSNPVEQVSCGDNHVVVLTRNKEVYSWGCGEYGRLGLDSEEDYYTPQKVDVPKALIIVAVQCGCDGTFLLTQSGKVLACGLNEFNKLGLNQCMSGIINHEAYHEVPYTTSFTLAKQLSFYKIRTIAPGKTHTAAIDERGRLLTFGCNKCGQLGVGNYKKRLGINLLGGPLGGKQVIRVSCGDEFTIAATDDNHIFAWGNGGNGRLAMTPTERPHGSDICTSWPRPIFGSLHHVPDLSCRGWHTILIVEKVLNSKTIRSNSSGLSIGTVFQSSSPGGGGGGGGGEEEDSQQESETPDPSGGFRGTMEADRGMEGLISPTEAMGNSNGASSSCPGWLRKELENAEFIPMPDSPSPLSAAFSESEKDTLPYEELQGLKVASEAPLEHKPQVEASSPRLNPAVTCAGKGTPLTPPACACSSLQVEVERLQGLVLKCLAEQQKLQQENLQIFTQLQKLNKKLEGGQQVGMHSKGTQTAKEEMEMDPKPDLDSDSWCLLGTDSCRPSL
# UniProt O96013: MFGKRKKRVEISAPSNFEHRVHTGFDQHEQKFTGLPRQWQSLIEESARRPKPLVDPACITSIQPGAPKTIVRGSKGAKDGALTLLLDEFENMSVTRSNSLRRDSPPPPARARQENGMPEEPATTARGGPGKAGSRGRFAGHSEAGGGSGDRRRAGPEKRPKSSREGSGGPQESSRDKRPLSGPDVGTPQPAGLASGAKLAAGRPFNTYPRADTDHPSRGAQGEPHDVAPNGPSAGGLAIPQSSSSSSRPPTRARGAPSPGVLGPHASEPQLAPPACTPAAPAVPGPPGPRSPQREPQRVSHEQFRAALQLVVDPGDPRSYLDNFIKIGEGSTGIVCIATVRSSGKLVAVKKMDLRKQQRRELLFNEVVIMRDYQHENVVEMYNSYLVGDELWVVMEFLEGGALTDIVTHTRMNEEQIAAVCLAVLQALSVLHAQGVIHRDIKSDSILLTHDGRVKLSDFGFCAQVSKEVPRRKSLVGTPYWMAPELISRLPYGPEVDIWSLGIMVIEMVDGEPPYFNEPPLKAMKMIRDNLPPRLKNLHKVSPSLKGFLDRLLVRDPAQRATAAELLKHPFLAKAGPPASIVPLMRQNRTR
# UniProt Q14289, whole entry: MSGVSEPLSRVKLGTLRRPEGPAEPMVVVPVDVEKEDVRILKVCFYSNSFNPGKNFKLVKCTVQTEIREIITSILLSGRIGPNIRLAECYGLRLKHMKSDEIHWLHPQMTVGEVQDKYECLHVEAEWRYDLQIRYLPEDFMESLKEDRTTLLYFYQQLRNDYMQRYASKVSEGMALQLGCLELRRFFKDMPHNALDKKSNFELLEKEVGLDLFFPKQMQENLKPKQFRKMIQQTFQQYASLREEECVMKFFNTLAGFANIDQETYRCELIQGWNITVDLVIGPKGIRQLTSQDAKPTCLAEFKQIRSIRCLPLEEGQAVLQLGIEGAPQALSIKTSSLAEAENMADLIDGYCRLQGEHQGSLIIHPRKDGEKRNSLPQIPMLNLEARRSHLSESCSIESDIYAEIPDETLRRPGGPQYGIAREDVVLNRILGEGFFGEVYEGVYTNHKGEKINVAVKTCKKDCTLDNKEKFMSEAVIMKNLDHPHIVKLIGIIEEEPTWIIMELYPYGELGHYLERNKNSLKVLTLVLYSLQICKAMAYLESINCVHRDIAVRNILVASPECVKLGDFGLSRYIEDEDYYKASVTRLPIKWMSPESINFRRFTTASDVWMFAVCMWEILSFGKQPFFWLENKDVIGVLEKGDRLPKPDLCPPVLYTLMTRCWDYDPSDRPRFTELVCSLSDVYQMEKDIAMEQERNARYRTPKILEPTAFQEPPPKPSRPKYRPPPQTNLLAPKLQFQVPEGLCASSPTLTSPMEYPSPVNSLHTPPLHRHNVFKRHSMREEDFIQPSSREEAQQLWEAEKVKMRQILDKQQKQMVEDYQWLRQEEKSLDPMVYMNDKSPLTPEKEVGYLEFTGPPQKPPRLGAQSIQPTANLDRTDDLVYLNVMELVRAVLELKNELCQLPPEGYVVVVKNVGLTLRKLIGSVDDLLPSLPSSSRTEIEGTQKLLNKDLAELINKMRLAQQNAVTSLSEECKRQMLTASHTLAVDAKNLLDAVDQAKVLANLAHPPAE
# Columns and labels:
# Assay in all cases: biochemical
# USP5 (+Ubiquitin @ Kd) = USP5 (+Ubiquitin @ Kd) (Homo sapiens, UniProt P45974); settings: read-out: Activity (% Control)
# USP27x = USP27x (Homo sapiens, UniProt A6NNY8); settings: read-out: Activity (% Control)
# OTUD6A = OTUD6A (Homo sapiens, UniProt Q7L8S5); settings: read-out: Activity (% Control)
# Bradykinin B2 = Bradykinin B2 (Homo sapiens, UniProt P30411); settings: read-out: % Inh.
# Histamine H3 = Histamine H3 (Homo sapiens, UniProt Q9Y5N1); settings: read-out: % Inh.
# [1] = biological target: Transporter, Norepinephrine (NET) (Homo sapiens, UniProt P23975); settings: read-out: % Inh.
# Abl(h) = Abl(h) (Homo sapiens, UniProt P00519)
# ALK6(h) = ALK6(h) (Homo sapiens, UniProt O00238)
# A-Raf(h) = A-Raf(h) (Homo sapiens, UniProt P10398)
# Arg(h) = Arg(h) (Homo sapiens, UniProt P42684)
# BIKe(h) = BIKe(h) (Homo sapiens, UniProt Q9NSY1)
# Blk(h) = Blk(h) (Homo sapiens, UniProt P51451)
# BrSK2(h) = BrSK2(h) (Homo sapiens, UniProt Q8IWQ3)
# CaMKIIdelta(h) = CaMKIIdelta(h) (Homo sapiens, UniProt Q13557)
# CaMKIV(h) = CaMKIV(h) (Homo sapiens, UniProt Q16566)
# CDK5/p35(h) = CDK5/p35(h) (Homo sapiens, UniProt Q00535)
# CLK1(h) = CLK1(h) (Homo sapiens, UniProt P49759)
# DCAMKL1(h) = DCAMKL1(h) (Homo sapiens, UniProt O15075)
# DRAK2(h) = DRAK2(h) (Homo sapiens, UniProt O94768)
# DYRK1A(h) = DYRK1A(h) (Homo sapiens, UniProt Q13627)
# EphA2(h) = EphA2(h) (Homo sapiens, UniProt P29317)
# FGFR2(h) = FGFR2(h) (Homo sapiens, UniProt P21802)
# FGFR3(h) = FGFR3(h) (Homo sapiens, UniProt P22607)
# GSK3beta(h) = GSK3beta(h) (Homo sapiens, UniProt P49841)
# ICK(h) = ICK(h) (Homo sapiens, UniProt Q9UPZ9)
# IRAK4(h) = IRAK4(h) (Homo sapiens, UniProt Q9NWZ3)
# LTK(h) = LTK(h) (Homo sapiens, UniProt P29376)
# MAP4K5(h) = MAP4K5(h) (Homo sapiens, UniProt Q9Y4K4)
# MLK2(h) = MLK2(h) (Homo sapiens, UniProt Q02779)
# mTOR(h) = mTOR(h) (Homo sapiens, UniProt P42345)
# NEK2(h) = NEK2(h) (Homo sapiens, UniProt P51955)
# NEK9(h) = NEK9(h) (Homo sapiens, UniProt Q8TD19)
# NIM1(h) = NIM1(h) (Homo sapiens, UniProt Q8IY84)
# PAK4(h) = PAK4(h) (Homo sapiens, UniProt O96013)
# PDGFRbeta(h) = PDGFRbeta(h) (Homo sapiens, UniProt P09619)
# PhKgamma2(h) = PhKgamma2(h) (Homo sapiens, UniProt P15735)
# Pyk2(h) = Pyk2(h) (Homo sapiens, UniProt Q14289)
# SGK2(h) = SGK2(h) (Homo sapiens, UniProt Q9HBY8)
# TAF1L(h) = TAF1L(h) (Homo sapiens, UniProt Q8IZX4)
# TSSK1(h) = TSSK1(h) (Homo sapiens, UniProt Q9BXA7)
# Yes(h) = Yes(h) (Homo sapiens, UniProt P07947)
smiles,measurement,setting,value
"CC(C)C[C@H](NC(=O)C1(C(F)(F)F)CCCCC1)C(=O)Nc1nnc(Cc2ccc(C#N)cc2)s1 [Compound 22, CC(C)C[C@H](NC(=O)C1(CCCCC1)C(F)(F)F)C(=O)Nc2nnc(Cc3ccc(cc3)C#N)s2]",remaining activity at 1 µM,USP5 (+Ubiquitin @ Kd),108%
same,remaining activity at 10 µM,USP5 (+Ubiquitin @ Kd),90%
same,remaining activity at 1 µM,USP27x,103%
same,remaining activity at 10 µM,USP27x,96%
same,remaining activity at 1 µM,OTUD6A,99%
same,remaining activity at 10 µM,OTUD6A,105%
same,inhibition at 10 µM,Bradykinin B2,-7%
same,inhibition at 10 µM,Histamine H3,2%
same,inhibition at 10 µM,[1],37%
same,inhibition at 10 µM,Abl(h),-14.7%
same,inhibition at 10 µM,ALK6(h),26.8%
same,inhibition at 10 µM,A-Raf(h),7.65%
same,inhibition at 10 µM,Arg(h),-13.7%
same,inhibition at 10 µM,BIKe(h),-13.9%
same,inhibition at 10 µM,Blk(h),3.04%
same,inhibition at 10 µM,BrSK2(h),-5.3%
same,inhibition at 10 µM,CaMKIIdelta(h),-3.4%
same,inhibition at 10 µM,CaMKIV(h),-9.6%
same,inhibition at 10 µM,CDK5/p35(h),-11.6%
same,inhibition at 10 µM,CLK1(h),1.92%
same,inhibition at 10 µM,DCAMKL1(h),-0.87%
same,inhibition at 10 µM,DRAK2(h),6.43%
same,inhibition at 10 µM,DYRK1A(h),-5.31%
same,inhibition at 10 µM,EphA2(h),-2.44%
same,inhibition at 10 µM,FGFR2(h),-9.39%
same,inhibition at 10 µM,FGFR3(h),21.2%
same,inhibition at 10 µM,GSK3beta(h),3.68%
same,inhibition at 10 µM,ICK(h),6.32%
same,inhibition at 10 µM,IRAK4(h),-10.4%
same,inhibition at 10 µM,LTK(h),-4.59%
same,inhibition at 10 µM,MAP4K5(h),-3.65%
same,inhibition at 10 µM,MLK2(h),8.77%
same,inhibition at 10 µM,mTOR(h),-5.19%
same,inhibition at 10 µM,NEK2(h),-2.19%
same,inhibition at 10 µM,NEK9(h),-1.19%
same,inhibition at 10 µM,NIM1(h),1.06%
same,inhibition at 10 µM,PAK4(h),0.07%
same,inhibition at 10 µM,PDGFRbeta(h),-3.59%
same,inhibition at 10 µM,PhKgamma2(h),9.2%
same,inhibition at 10 µM,Pyk2(h),-5.98%
same,inhibition at 10 µM,SGK2(h),-5.61%
same,inhibition at 10 µM,TAF1L(h),-1.18%
same,inhibition at 10 µM,TSSK1(h),5.25%
same,inhibition at 10 µM,Yes(h),13.2%
"CC(C)C[C@@H](NC(=O)C1(C(F)(F)F)CCCCC1)C(=O)Nc1nnc(Cc2ccc(C#N)cc2)s1 [Compound 21, N-[(1R)-1-[[5-[(4-Cyanophenyl)methyl]-1,3,4-thiadiazol-2-yl]carbamoyl]-3-methyl-butyl]-1-(trifluoromethyl)cyclohexanecarboxamide]",remaining activity at 1 µM,USP5 (+Ubiquitin @ Kd),105%
same,remaining activity at 10 µM,USP5 (+Ubiquitin @ Kd),110%
same,remaining activity at 1 µM,USP27x,105%
same,remaining activity at 10 µM,USP27x,108%
same,remaining activity at 1 µM,OTUD6A,103%
same,remaining activity at 10 µM,OTUD6A,99%
same,inhibition at 10 µM,Bradykinin B2,-7%
same,inhibition at 10 µM,Histamine H3,-2%
same,inhibition at 10 µM,[1],10%
same,inhibition at 10 µM,Abl(h),5.25%
same,inhibition at 10 µM,ALK6(h),14.6%
same,inhibition at 10 µM,A-Raf(h),2.98%
same,inhibition at 10 µM,Arg(h),-7.9%
same,inhibition at 10 µM,BIKe(h),7.79%
same,inhibition at 10 µM,Blk(h),-2.02%
same,inhibition at 10 µM,BrSK2(h),-0.32%
same,inhibition at 10 µM,CaMKIIdelta(h),-6.77%
same,inhibition at 10 µM,CaMKIV(h),-9.78%
same,inhibition at 10 µM,CDK5/p35(h),-0.85%
same,inhibition at 10 µM,CLK1(h),8.38%
same,inhibition at 10 µM,DCAMKL1(h),6.25%
same,inhibition at 10 µM,DRAK2(h),17.6%
same,inhibition at 10 µM,DYRK1A(h),-2.65%
same,inhibition at 10 µM,EphA2(h),7.27%
same,inhibition at 10 µM,FGFR2(h),-17.4%
same,inhibition at 10 µM,FGFR3(h),19.4%
same,inhibition at 10 µM,GSK3beta(h),6.52%
same,inhibition at 10 µM,ICK(h),29.7%
same,inhibition at 10 µM,IRAK4(h),-5.95%
same,inhibition at 10 µM,LTK(h),-1.54%
same,inhibition at 10 µM,MAP4K5(h),-2.39%
same,inhibition at 10 µM,MLK2(h),10.2%
same,inhibition at 10 µM,mTOR(h),0.96%
same,inhibition at 10 µM,NEK2(h),-5.96%
same,inhibition at 10 µM,NEK9(h),2.31%
same,inhibition at 10 µM,NIM1(h),2.28%
same,inhibition at 10 µM,PAK4(h),-8.93%
same,inhibition at 10 µM,PDGFRbeta(h),6.52%
same,inhibition at 10 µM,PhKgamma2(h),5.66%
same,inhibition at 10 µM,Pyk2(h),9.9%
same,inhibition at 10 µM,SGK2(h),6.44%
same,inhibition at 10 µM,TAF1L(h),8.62%
same,inhibition at 10 µM,TSSK1(h),4.75%
same,inhibition at 10 µM,Yes(h),12.4%
